The chains behind the UniProt entries cited, without tags or fusion partners. Where a name states a change or a piece, a line headed by the entry shows the natural chain unless it says otherwise.
UniProt P41145: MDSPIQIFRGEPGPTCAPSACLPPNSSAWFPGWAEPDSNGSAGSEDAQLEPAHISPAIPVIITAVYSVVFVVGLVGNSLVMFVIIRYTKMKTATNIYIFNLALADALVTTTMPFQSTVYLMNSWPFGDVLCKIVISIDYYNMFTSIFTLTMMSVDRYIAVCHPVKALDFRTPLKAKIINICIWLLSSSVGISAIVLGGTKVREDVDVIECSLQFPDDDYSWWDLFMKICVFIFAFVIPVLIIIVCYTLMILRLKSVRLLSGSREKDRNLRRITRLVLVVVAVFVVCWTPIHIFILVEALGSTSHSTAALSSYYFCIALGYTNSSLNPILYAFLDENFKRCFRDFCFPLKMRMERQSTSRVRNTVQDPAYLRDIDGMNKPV
UniProt P41143, whole entry, looked up: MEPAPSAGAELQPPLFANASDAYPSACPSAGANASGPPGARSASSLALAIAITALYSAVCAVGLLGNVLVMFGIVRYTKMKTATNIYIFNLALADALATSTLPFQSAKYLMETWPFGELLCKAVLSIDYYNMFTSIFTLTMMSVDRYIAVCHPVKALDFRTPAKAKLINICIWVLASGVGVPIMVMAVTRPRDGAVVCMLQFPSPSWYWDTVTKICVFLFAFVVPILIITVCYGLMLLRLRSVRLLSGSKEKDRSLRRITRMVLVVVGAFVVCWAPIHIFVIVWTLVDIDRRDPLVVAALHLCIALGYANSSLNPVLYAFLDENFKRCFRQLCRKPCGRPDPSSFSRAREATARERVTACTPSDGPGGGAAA
UniProt P35372, whole entry, looked up: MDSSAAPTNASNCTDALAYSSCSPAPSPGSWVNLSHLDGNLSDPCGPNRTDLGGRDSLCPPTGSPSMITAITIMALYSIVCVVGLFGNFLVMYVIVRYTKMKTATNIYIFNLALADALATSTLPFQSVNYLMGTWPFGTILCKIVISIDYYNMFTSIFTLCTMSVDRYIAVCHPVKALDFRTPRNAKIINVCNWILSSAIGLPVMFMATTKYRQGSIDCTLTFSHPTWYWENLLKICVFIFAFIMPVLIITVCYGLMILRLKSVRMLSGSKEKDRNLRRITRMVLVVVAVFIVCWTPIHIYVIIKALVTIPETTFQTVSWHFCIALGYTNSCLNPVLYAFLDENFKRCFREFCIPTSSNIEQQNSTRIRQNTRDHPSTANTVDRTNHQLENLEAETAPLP

In ChEMBL document CHEMBL1145905, “Design and synthesis of novel dimeric morphinan ligands for kappa and micro opioid receptors” (J Med Chem, 2003):

Experiments:
[1] = target: Opioid receptors; delta & kappa (Homo sapiens) (UniProt P41145+P41143); assay: Selective inhibitory activity was determined against kappa & delta opioid receptor in chinese Hamster Ovary (CHO) cell membranes
[2] = target: Opioid receptors; mu & kappa (Homo sapiens) (UniProt P41145+P35372); assay: Selective inhibitory activity was determined against kappa & mu opioid receptor in chinese Hamster Ovary (CHO) cell membranes

With `CN(C(=O)Cc1cccc2occc12)[C@H]1CC[C@@]2(CCCO2)C[C@@H]1N1CCCC1` the Selectivity [1] was greater than 1000 and the Selectivity [2] was 80.
